EC50 data for 16 molecules are collected here from US20210198647A1, “Enhancers of Neurolysin Activity” (Texas Tech University System, priority 2018, published 2021).

The chains behind the UniProt entries cited, without tags or fusion partners. Residues count along the entry.
UniProt P42676, 38-704: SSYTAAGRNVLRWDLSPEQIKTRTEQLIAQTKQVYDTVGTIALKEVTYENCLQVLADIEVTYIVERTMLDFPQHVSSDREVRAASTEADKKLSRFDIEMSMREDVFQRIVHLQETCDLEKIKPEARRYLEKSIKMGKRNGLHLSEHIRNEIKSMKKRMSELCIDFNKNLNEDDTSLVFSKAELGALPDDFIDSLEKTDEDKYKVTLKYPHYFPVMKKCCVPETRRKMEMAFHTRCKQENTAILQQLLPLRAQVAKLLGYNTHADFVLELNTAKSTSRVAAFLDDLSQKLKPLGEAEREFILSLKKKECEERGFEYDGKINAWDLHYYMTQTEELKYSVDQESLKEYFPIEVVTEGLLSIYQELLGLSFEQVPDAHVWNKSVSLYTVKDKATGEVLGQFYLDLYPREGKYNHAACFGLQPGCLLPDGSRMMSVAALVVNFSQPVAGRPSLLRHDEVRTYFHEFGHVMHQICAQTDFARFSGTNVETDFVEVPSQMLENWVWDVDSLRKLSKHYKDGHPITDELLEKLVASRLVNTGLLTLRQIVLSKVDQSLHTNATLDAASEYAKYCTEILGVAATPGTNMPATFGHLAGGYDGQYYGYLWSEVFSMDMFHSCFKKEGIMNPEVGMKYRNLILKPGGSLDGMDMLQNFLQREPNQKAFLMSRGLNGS

pEC50: −log10 of the molar value. Several values for one entry are separate records, joined by “and”; a condition that tells them apart may be missing. Identical values can stand only once.

One experiment concerns the target T1, Neurolysin (Nln) (Rattus norvegicus, UniProt P42676).
T1 construct: polyhistidine (N); made in house; host or cells: Escherichia coli (pBAD/His vector), if the rat enzyme of b61 was used
As to the kind of experiment: Nln activation in isolated enzyme assay (A50, Amax). It is filed as biochemical. As to conditions: A50 (concentration required to activate Nln by 50%).
For the molecule `N[C@H](Cc1c[nH]cn1)C(=O)NCCCc1ccccc1` [Compound 7b, (R)-2-amino-3-(1H-imidazol-4-yl)-N-(3-phenylpropyl)propanamide], the pEC50 was 4.68.

In the case of `N[C@@H](Cc1c[nH]cn1)C(=O)NCCCc1ccccc1` [Compound 7a, (S)-2-amino-3-(1H-imidazol-4-yl)-N-(3-phenylpropyl)propanamide], the pEC50 is 4.69.

The same experiment, now with this note: read-out: A50 (concentration required to activate Nln by 50%).
In the case of `N[C@H](Cc1c[nH]cn1)C(=O)NCCc1ccc(C(F)(F)F)cc1` [Compound 4l, (R)-2-amino-3-(1H-imidazol-4-yl)-N-(4-(trifluoromethyl)phenethyl)propanamide], the pEC50 was 4.52 and 4.62.

In the case of `N[C@@H](Cc1c[nH]cn1)C(=O)NCc1ccccc1C(F)(F)F` [Compound 5j, (S)-2-amino-3-(1H-imidazol-4-yl)-N-(2-(trifluoromethyl)benzyl)propanamide], the pEC50 was 4.31.

Regarding `N[C@H](C(=O)N1CCC[C@H]1C(=O)O)c1c[nH]cn1` [His-Pro], the pEC50 was 5.25.

`N[C@@H](Cc1c[nH]cn1)C(=O)NCc1ccc(OC(F)(F)F)cc1` [Compound 5p]: the pEC50 was 4.56.

On to `COc1cccc(CNC(=O)[C@@H](N)Cc2c[nH]cn2)c1` [Compound 5f], for which the pEC50 is 4.18.

For the molecule `N[C@H](Cc1c[nH]cn1)C(=O)NCc1ccc(SC(F)(F)F)cc1` [Compound 5s], the pEC50 is 4.80 and 4.79.

Take `N[C@H](Cc1c[nH]cn1)C(=O)NCc1ccc(C(F)(F)F)cc1` [Compound 5i, (R)-2-amino-3-(1H-imidazol-4-yl)-N-(4-(trifluoromethyl)benzyl)propanamide]: the pEC50 was 4.53.

With `N[C@H](Cc1c[nH]cn1)C(=O)NCc1ccccc1C(F)(F)F` [Compound 5k, (R)-2-amino-3-(1H-imidazol-4-yl)-N-(2-(trifluoromethyl)benzyl)propanamide], the pEC50 was 4.57.

Consider `N[C@@H](Cc1c[nH]cn1)C(=O)NCc1ccc(C(F)(F)F)cc1` [Compound 5h, (S)-2-amino-3-(1H-imidazol-4-yl)-N-(4-(trifluoromethyl)benzyl)propanamide], for which the pEC50 is 4.59.

`N[C@@H](Cc1c[nH]cn1)C(=O)NCc1ccc(F)cc1` [Compound 5n, (S)-2-amino-N-(4-fluorobenzyl)-3-(1H-imidazol-4-yl)propanamide]: the pEC50 was 4.82 and 4.83.

In the case of `N[C@H](Cc1c[nH]cn1)C(=O)NCc1ccc(F)cc1` [Compound 5o, (R)-2-amino-N-(4-fluorobenzyl)-3-(1H-imidazol-4-yl)propanamide], the pEC50 is 4.52 and 4.53.

In the case of `N[C@H](Cc1c[nH]cn1)C(=O)NCc1ccc(OC(F)(F)F)cc1` [Compound 5q, (R)-2-amino-3-(1H-imidazol-4-yl)-N-(4-(trifluoromethoxy)benzyl)propanamide], the pEC50 is 4.57.

Take `N[C@@H](Cc1c[nH]cn1)C(=O)NCCc1ccc(C(F)(F)F)cc1` [Compound 4k]: the pEC50 was 4.80.

For `N[C@@H](Cc1c[nH]cn1)C(=O)NCc1ccc(SC(F)(F)F)cc1` [Compound 5r], the pEC50 is 4.55.
